Results reported in ChEMBL document CHEMBL1944596, “7,8-dichloro-1-oxo-β-carbolines as a versatile scaffold for the development of potent and selective kinase inhibitors with unusual binding modes” (J Med Chem, 2012).

Amino acid sequences for entries named in this document (tags omitted). A change or cut given only in a name is not applied to a line headed by its entry.
UniProt P08581: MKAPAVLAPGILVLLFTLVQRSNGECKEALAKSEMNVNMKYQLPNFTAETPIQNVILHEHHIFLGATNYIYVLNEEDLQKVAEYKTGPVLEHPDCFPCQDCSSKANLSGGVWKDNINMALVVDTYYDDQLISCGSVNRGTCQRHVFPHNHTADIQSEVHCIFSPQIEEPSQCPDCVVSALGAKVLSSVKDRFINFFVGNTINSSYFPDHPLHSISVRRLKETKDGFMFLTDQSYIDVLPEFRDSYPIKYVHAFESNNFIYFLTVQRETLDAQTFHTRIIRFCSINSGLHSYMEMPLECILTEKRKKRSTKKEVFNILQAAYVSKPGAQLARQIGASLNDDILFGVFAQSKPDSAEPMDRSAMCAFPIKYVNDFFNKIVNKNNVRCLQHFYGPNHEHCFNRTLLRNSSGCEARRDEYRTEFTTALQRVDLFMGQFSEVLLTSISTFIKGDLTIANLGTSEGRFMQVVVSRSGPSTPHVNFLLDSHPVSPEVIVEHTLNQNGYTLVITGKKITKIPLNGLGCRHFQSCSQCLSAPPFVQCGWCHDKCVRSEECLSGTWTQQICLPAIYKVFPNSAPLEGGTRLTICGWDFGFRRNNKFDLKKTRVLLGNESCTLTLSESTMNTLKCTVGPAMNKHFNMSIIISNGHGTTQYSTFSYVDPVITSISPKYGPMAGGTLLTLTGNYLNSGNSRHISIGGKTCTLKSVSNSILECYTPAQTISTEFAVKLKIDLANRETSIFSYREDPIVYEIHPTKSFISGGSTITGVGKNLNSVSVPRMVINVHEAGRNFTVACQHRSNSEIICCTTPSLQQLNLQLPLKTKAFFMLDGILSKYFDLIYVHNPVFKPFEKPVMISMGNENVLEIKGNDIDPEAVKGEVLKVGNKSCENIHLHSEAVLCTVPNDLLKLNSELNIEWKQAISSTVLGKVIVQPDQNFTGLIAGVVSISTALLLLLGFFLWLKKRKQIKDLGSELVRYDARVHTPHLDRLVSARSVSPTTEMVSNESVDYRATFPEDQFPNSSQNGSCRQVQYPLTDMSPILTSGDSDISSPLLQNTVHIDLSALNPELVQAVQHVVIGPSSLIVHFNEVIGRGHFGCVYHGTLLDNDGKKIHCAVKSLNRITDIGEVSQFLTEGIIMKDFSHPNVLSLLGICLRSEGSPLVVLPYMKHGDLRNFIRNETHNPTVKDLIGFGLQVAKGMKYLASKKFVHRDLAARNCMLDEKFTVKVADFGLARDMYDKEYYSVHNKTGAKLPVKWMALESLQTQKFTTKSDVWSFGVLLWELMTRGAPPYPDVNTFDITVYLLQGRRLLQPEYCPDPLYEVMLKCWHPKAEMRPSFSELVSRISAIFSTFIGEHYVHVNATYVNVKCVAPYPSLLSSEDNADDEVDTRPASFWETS
UniProt P21802, whole entry: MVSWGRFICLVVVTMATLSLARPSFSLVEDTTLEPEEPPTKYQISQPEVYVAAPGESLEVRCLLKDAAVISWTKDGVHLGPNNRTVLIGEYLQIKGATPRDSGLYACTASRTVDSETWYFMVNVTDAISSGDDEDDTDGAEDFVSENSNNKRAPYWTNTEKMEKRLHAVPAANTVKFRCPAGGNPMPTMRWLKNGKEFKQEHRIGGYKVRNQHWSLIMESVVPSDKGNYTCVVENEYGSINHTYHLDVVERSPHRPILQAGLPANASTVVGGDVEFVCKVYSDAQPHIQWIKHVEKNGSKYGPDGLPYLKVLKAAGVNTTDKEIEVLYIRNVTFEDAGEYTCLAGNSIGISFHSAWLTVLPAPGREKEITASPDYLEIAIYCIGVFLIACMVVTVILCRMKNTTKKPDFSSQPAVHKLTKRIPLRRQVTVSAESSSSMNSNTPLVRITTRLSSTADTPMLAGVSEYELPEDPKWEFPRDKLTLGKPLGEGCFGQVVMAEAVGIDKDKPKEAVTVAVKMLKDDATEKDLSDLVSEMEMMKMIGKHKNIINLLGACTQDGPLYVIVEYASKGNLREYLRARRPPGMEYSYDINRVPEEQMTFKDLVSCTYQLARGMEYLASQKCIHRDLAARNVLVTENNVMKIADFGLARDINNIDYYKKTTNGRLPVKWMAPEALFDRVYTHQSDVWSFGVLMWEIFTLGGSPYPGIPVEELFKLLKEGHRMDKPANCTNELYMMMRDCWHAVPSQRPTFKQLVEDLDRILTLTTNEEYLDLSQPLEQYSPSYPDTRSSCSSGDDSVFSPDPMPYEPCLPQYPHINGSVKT
UniProt P54764, whole entry: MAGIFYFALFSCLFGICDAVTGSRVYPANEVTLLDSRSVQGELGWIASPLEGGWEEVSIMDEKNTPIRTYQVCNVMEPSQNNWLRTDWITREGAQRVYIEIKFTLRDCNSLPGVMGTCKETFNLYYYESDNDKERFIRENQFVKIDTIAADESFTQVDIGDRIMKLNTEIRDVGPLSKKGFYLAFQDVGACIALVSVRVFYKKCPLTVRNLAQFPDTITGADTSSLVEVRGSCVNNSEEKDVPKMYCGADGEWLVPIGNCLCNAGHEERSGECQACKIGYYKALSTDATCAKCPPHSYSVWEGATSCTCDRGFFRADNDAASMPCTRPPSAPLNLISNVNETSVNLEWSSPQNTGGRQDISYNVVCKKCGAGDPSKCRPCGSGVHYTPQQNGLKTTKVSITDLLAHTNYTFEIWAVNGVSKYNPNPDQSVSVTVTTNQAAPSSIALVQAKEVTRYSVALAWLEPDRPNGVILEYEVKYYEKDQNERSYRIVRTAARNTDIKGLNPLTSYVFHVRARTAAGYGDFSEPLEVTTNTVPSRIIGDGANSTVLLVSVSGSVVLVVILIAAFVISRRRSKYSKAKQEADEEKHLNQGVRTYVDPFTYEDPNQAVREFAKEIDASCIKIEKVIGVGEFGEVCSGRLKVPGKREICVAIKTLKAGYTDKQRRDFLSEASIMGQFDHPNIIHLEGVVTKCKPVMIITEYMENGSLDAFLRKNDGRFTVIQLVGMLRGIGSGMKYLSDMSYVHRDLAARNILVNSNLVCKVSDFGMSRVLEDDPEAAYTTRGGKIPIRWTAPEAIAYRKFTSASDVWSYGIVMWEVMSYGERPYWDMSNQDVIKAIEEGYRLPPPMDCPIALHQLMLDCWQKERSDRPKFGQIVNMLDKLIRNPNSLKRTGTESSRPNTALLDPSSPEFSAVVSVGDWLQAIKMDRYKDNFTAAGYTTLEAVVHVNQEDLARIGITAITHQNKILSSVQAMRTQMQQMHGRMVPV
UniProt P12931: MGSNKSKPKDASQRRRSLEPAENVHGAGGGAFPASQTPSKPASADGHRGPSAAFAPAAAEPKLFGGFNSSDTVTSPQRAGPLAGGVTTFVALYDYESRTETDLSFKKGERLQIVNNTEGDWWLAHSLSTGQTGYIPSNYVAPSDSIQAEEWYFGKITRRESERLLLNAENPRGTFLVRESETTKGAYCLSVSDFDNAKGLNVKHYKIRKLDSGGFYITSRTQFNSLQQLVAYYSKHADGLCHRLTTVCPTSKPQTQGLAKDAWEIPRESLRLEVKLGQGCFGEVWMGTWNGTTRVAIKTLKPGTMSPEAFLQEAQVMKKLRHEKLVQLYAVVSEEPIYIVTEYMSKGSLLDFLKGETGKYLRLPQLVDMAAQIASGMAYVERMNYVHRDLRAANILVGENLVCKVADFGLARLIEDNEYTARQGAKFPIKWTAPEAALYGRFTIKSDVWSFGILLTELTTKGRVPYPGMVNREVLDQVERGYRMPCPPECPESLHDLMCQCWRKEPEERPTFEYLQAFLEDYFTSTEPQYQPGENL
UniProt P11362, whole entry: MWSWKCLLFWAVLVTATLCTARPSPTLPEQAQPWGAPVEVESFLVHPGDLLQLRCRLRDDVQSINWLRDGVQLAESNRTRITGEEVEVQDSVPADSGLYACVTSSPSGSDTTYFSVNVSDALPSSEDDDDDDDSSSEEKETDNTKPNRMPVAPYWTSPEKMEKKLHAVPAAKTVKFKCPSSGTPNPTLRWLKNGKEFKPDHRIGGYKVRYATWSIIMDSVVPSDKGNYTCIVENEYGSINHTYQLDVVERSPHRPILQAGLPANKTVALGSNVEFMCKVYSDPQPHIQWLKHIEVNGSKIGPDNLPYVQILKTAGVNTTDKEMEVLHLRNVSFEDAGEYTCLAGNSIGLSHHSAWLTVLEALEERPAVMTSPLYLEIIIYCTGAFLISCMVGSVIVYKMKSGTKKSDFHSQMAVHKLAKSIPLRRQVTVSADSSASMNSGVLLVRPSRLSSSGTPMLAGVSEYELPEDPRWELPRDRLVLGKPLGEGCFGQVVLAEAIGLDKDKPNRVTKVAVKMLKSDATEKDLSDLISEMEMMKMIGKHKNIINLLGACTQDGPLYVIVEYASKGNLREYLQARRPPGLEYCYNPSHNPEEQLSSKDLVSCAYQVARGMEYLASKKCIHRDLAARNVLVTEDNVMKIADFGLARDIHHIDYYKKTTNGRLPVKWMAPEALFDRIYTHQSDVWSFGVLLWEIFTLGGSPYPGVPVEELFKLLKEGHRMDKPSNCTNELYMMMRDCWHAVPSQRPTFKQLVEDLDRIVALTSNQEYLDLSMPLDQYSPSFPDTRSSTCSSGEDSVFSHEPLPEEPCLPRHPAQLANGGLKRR
UniProt Q16539, whole entry: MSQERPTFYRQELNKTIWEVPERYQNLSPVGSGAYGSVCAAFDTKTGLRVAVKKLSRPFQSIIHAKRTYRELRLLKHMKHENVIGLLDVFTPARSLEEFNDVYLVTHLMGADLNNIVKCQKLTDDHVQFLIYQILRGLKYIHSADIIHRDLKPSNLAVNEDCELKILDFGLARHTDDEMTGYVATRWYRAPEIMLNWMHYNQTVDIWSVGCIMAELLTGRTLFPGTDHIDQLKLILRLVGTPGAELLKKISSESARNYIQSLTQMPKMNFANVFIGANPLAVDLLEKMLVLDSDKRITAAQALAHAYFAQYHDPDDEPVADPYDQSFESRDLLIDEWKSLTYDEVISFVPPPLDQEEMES
UniProt P41240: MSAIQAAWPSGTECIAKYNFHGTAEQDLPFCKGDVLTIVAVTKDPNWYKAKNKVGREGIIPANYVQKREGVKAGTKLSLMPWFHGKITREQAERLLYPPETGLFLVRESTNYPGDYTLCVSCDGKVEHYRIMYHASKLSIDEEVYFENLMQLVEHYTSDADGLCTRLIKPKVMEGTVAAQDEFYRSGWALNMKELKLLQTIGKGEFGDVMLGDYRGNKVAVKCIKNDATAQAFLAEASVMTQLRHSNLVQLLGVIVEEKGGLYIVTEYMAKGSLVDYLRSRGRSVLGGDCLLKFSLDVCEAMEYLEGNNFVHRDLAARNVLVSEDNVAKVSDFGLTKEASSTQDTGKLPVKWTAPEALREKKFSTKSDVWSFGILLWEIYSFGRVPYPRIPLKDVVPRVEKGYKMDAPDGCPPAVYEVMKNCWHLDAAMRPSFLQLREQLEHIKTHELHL
UniProt P22455, whole entry: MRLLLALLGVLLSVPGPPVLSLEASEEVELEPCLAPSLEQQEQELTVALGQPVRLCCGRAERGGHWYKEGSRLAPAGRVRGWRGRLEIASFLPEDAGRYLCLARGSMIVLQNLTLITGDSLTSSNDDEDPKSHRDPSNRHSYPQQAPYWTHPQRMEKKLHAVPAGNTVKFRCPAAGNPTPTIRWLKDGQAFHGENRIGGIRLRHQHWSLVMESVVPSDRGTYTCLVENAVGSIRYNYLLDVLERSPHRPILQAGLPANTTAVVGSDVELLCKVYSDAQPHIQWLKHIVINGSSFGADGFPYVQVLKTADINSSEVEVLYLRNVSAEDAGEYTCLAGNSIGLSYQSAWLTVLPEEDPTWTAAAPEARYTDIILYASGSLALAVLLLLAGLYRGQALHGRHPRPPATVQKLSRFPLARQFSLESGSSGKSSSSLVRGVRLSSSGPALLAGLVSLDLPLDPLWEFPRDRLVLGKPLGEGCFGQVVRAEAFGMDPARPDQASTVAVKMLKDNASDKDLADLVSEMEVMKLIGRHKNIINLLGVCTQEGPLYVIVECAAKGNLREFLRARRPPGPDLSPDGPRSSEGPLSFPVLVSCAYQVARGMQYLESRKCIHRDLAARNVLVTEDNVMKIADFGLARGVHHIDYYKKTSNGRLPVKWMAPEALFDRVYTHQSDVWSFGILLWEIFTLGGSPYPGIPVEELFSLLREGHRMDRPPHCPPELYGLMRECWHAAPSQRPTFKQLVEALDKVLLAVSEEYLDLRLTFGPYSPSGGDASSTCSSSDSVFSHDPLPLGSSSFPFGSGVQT

What was measured:
[1] = target: T1, Tyrosine-protein kinase ZAP-70 (Homo sapiens, UniProt P43403); experiment: Inhibition of ZAP70 using ATP as substrate
T1 sequence (P43403 whole entry): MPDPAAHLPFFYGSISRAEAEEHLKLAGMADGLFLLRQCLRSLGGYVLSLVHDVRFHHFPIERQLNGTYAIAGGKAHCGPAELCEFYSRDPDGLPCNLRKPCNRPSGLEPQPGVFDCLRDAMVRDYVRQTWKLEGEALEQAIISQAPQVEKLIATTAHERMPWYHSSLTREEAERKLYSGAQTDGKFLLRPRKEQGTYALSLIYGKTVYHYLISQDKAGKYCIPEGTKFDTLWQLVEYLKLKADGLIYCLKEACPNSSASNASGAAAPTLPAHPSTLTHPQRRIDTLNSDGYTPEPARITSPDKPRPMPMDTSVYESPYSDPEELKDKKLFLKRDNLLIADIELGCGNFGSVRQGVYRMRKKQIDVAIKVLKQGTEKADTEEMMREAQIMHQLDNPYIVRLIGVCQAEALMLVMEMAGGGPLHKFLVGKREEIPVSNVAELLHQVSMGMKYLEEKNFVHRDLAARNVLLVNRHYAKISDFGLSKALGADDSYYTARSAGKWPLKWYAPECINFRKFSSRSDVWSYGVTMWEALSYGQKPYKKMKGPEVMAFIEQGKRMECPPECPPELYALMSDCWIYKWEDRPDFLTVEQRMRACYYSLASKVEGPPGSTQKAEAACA

[2] = target: Cyclin-dependent kinase 2 (Homo sapiens, UniProt P24941); experiment: Inhibition of CDK2 using ATP as substrate
[3] = target: Hepatocyte growth factor receptor (Homo sapiens, UniProt P08581); experiment: Inhibition of cMET using ATP as substrate
[4] = target: Tyrosine-protein kinase SYK (Homo sapiens, UniProt P43405); experiment: Inhibition of SYK using ATP as substrate
[5] = target: Fibroblast growth factor receptor 2 (Homo sapiens, UniProt P21802); experiment: Inhibition of FGFR2 using ATP as substrate
Ephrin type-A receptor 4 = Ephrin type-A receptor 4 (Homo sapiens, UniProt P54764); experiment: Inhibition of EphA4 using ATP as substrate
[6] = target: Proto-oncogene tyrosine-protein kinase Src (Homo sapiens, UniProt P12931); experiment: Inhibition of cSRC using ATP as substrate
[7] = target: Fibroblast growth factor receptor 1 (Homo sapiens, UniProt P11362); experiment: Inhibition of FGFR1 using ATP as substrate
[8] = target: Mitogen-activated protein kinase 14 (Homo sapiens, UniProt Q16539); experiment: Inhibition of p38alpha using ATP as substrate
[9] = target: T2, Tyrosine-protein kinase JAK3 (Homo sapiens, UniProt P52333); experiment: Inhibition of JAK3 using ATP as substrate
T2 sequence (P52333 whole entry): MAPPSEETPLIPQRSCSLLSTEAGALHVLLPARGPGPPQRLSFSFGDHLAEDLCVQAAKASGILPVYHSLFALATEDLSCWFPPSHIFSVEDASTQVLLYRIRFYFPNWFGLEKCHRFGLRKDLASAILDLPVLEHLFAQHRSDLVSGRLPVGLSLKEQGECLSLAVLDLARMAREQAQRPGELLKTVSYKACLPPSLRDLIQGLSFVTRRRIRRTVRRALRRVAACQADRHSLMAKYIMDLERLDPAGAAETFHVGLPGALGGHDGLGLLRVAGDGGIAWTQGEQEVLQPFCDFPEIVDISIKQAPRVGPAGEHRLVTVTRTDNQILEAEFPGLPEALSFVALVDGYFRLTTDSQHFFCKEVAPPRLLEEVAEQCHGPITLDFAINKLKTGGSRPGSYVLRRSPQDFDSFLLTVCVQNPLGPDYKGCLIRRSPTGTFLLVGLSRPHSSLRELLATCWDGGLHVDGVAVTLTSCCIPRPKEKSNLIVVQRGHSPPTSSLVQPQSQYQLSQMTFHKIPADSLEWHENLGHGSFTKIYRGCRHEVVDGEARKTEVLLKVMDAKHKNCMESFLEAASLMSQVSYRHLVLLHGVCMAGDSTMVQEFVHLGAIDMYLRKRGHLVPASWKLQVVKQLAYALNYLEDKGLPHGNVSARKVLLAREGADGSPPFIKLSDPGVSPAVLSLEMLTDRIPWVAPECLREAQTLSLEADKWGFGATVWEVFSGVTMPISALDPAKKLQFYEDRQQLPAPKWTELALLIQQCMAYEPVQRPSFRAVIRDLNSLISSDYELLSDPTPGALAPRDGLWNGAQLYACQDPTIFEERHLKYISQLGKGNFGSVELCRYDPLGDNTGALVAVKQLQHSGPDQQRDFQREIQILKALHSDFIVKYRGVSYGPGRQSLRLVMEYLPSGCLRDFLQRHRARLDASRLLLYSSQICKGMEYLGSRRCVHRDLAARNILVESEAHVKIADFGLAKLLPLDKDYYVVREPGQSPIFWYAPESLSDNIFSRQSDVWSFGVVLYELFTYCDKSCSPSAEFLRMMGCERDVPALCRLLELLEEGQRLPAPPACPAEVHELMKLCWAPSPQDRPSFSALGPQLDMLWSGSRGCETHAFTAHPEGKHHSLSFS

[10] = target: Tyrosine-protein kinase CSK (Homo sapiens, UniProt P41240); experiment: Inhibition of CSK using ATP as substrate
[11] = target: Fibroblast growth factor receptor 4 (Homo sapiens, UniProt P22455); experiment: Inhibition of FGFR4 using ATP as substrate
Ephrin type-B receptor 4 = target: T3, Ephrin type-B receptor 4 (Homo sapiens, UniProt P54760); experiment: Inhibition of EphB4 using ATP as substrate
T3 sequence (P54760 whole entry): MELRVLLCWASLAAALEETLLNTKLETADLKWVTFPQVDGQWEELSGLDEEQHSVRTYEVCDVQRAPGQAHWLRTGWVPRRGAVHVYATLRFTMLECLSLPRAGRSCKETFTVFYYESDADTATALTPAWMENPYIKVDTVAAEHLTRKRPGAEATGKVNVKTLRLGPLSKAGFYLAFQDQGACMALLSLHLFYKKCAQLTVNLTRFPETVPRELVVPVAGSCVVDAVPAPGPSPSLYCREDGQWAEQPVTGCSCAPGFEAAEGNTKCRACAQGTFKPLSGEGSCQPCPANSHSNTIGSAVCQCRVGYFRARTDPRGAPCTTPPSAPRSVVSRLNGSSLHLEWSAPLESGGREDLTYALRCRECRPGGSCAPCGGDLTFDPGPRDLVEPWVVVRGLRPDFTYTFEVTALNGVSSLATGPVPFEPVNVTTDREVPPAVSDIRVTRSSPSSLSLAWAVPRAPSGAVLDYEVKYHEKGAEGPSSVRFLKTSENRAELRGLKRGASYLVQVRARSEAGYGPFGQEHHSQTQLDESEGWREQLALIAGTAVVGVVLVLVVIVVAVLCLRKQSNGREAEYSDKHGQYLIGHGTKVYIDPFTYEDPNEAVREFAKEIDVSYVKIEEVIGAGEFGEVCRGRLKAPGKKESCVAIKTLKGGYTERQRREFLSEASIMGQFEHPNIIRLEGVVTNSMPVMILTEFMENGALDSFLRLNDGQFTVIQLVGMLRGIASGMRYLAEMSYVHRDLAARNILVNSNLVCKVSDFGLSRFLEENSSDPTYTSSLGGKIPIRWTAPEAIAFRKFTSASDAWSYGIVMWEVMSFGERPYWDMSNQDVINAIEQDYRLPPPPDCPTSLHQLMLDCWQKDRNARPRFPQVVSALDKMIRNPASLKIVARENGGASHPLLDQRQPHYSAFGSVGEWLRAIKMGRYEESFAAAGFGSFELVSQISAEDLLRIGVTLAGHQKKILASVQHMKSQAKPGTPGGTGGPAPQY

[12] = target: T4, Tyrosine-protein kinase receptor UFO (Homo sapiens, UniProt P30530); experiment: Inhibition of AXL using ATP as substrate
T4 sequence (P30530 whole entry): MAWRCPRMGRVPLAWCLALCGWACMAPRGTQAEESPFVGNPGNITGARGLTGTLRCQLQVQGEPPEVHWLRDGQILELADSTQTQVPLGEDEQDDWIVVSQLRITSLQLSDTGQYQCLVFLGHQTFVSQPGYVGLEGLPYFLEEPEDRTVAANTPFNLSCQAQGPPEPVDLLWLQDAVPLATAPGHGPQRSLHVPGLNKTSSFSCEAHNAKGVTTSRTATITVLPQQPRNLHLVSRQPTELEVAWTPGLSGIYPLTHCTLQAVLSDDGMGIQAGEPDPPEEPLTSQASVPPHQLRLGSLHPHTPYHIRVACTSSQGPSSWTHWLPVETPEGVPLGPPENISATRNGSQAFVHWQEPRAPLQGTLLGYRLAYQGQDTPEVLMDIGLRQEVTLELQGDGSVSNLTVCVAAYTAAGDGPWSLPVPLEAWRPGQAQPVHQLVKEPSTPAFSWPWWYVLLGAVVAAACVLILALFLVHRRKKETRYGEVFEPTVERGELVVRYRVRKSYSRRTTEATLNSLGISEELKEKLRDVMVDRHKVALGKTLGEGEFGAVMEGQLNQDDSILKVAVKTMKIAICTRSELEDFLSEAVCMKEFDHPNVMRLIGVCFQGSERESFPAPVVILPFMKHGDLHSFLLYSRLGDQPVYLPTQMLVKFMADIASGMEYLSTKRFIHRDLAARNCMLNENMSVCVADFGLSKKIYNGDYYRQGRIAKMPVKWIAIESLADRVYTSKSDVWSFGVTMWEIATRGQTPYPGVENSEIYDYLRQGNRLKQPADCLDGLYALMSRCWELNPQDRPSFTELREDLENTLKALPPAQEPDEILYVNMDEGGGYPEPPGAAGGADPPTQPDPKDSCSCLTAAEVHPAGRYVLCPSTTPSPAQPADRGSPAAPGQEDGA

Measured: IC50

Cn1c2c(c3ccc(Cl)c(Cl)c31)C(C#N)C1(CCNCC1)NC2=O (racemic)
> 10 µM: all assays above
